Assay [1] has as its target N-terminal-6His-tagged CXCL12 (HMGBiotech) (UniProt P48061). As to the kind of experiment: MST; frHMGB1 or frHMGB1-TL titrated (16 points) into 50 nM 6His-tagged CXCL12 labelled with RED-tris-NTA; 24 °C, 20 mM NaH2PO4/Na2HPO4 pH 7.3, 0.05% TWEEN, 20 mM NaCl; one binding site.
For assay [2] the target is unchanged. The assay can be described thus: MST; as a8 but with 150 mM NaCl.

Chains of the proteins cited; added tags and fusions are not shown. Residues count along the entry.
UniProt P48061, 22-93: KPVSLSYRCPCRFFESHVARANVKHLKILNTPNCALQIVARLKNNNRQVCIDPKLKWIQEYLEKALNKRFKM

For the substance “tail-less fully reduced HMGB1 (frHMGB1-TL) (domain or fragment)”, the Kd in assay [1] is 12.5 µM; in assay [2] it was 81.4 µM.

The values are drawn from publication PMC10853541.
